High-throughput results (PubChem BioAssay)
Wnt bcat act – Wnt/beta-catenin pathway activation; Wnt/beta-catenin reporter cell assay, activator, plate reader; activation, % at 9.35 µM; 300,000 tested, 1.2% active; in the data active = activation above about 30%, passing the limit was not always enough; inconclusive = no clear call, values can overlap the other calls;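 note: 0% = neutral control wells and 100% = positive control wells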
miR-122 sensor – blocks miR-122 activity in Huh7 sensor cells | Huh7 miR-122 Renilla luciferase sensor, 48 h; neutral wells = 0, positive control = 100 | activation (reporter increase), % at 12.5 µM | 340,000 tested, 0.3% active | AID 602342;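 active = mean replicate activation score at least 90 and every replicate individually at or above 90; inconclusive = only one of the two criteria met; inactive = neither criterion met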;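 note: higher luciferase means less miR-122 activity so hits act as miR-122 inhibitors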
UUG fidelity – alters start codon recognition fidelity in yeast; S. cerevisiae UUG-firefly luciferase reporter, luminescence/redox ratio; activity score, % at 18.7 µM; actives 0.13% (n = 350,000); AID 602363;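 active = replicate mean at a twofold rise or more, about +100% in these data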;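 also: firefly luciferase made from a UUG start codon reports start codon fidelity; reporter light over untreated wells divided by growth signal over untreated wells; some hits fall short of that in this replicate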
MITF act – increases MITF-driven TRPM1 promoter luciferase signal | SK-MEL-5 TRPM1-promoter luciferase, 24 h; % of positive control, neutral wells = 0 | activation, % at 12.5 µM | 300,000 tested, 0.75% active;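 active = mean activation of at least 80% with every replicate also reaching 80%; inconclusive = mean reaches 80% but some replicate falls short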;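 note: 0% = neutral control wells and 100% = parthenolide positive control wells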
esBAF inh – blocks esBAF chromatin remodeling in mouse ES cells | Bmi1-luciferase knock-in reporter, 24 h; 100% = twice the neutral-well signal | reporter increase, % at 12.5 µM | 350,000 tested, 2% active | AID 602393; in the data active = activation above about 40%; inconclusive = no clear call, values can overlap the other calls;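 note: 0% = median of the plate's neutral control wells and 100% = double that signal; a rise in the Bmi1 reporter signal indicates esBAF inhibition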
PglD inh – blocks C. jejuni PglD acetyltransferase activity | AID 602405 | purified PglD enzyme, DTNB colorimetric CoA detection | 360,000 tested, 0.098% active | inhibition, % at 12.5 µM; in the data active = inhibition above about 16%, passing the limit was not always enough; inconclusive = no clear call, values can overlap the other calls
The depositor's hits bear a star; ? = inconclusive; . = not tested or not shown; [ ] = another dose, or the depositor's remark. Shown are actives, neighbours in structure and some others; about 2.8% of the full set was active somewhere.

Key to letters – A = Wnt bcat act; B = miR-122 sensor; C = UUG fidelity; D = MITF act; E = esBAF inh; F = PglD inh
COc1ccc(C(=O)CNc2ccccc2C#N)cc1
  A = 5.1 | B = -3.2 | C = 11.1 | D = 60.4 | E = 49.5* | F = -2.3

COC(=O)CCC(=O)COc1ccc(OC)cc1C#N
  A = . | B = -1.7 | C = -16.6 | D = 114.3* | E = -9.2 | F = 9.2

COC(=O)CCC(=O)COc1ccccc1C#N
  A = . | B = -0.6 | C = -8.3 | D = 16.0 | E = 2.9 | F = 1.9

COc1ccc(C(=O)COc2ccccc2C(N)=O)cc1
  A = 4.8 | B = -2.1 | C = -39.0 | D = 33.7 | E = 3.3 | F = -0.7

CO[C@@H]1CN(C)C(=O)c2cc(NC(=O)c3cc(C)on3)ccc2OC[C@H](C)N(C(C)=O)C[C@H]1C
  A = . | B = -3.0[16.7 µM] | C = -0.2 | D = . | E = -3.3 | F = 0.7

C[C@@H]1CN([C@H](C)CO)S(=O)(=O)c2ccc(Br)cc2O[C@H]1CN(C)Cc1ccncc1
  A = . | B = 3.7[16.7 µM] | C = 6.6 | D = . | E = 6.8 | F = 2.4

C[C@@H]1CN([C@H](C)CO)C(=O)c2cc(NC(=O)NC3CCCCC3)ccc2O[C@@H]1CN(C)S(=O)(=O)c1ccccc1
  A = . | B = 37.1[16.7 µM] | C = -6.0 | D = . | E = -3.7 | F = -1.9

C[C@@H]1CCCCO[C@H](CN(C)C(=O)Nc2ccccc2)[C@@H](C)CN([C@@H](C)CO)C(=O)c2cc(NC(=O)c3ccccc3)ccc2O1
  A = . | B = 3.6[16.7 µM] | C = 0.9 | D = . | E = -0.8 | F = 3.9

Cc1ccc(C)c(OCc2cc(C(=O)NC3CCOC(C)(C)C3)no2)c1 (centres undefined)
  A = 12.1 | B = -4.8 | C = -4.7 | D = 17.1 | E = 50.9* | F = 1.4

COc1cc(C)ccc1OCc1cc(C(=O)N2CCC(c3ccc(F)cc3)C2)no1 (centres undefined)
  A = 40.9* | B = 1.1 | C = 4.5 | D = 82.2* | E = 81.7* | F = 2.1

Cc1ccc(C)c(OCc2cc(C(=O)N3C[C@@H](C)O[C@@H](C)C3)no2)c1
  A = 37.4* | B = -0.9 | C = 6.6 | D = 125.3* | E = 75.6* | F = -6.2

CSc1ccccc1OCc1cc(C(=O)NC2CCOC(C)(C)C2)no1 (centres undefined)
  A = -0.4 | B = -2.3 | C = -16.7 | D = 12.0 | E = -0.2 | F = 0.4

CCN(CCn1cccn1)C(=O)c1cc(COc2cc(C)ccc2C)on1
  A = ? | B = -3.1 | C = -4.2 | D = 61.0 | E = 69.7* | F = -3.7

Cc1ccc(C)c(OCc2cc(C(=O)N3CCN(C4CCCCC4)CC3)no2)c1
  A = 0.1 | B = 3.3 | C = -11.0 | D = . | E = 1.1 | F = -1.7

C[C@@H]1CCCCO[C@@H](CN(C)Cc2ccncc2)[C@H](C)CN([C@H](C)CO)C(=O)c2cc(NC(=O)Nc3cccc4ccccc34)ccc2O1
  A = . | B = -2.4[16.7 µM] | C = -5.9 | D = . | E = -4.6 | F = -3.2

Cc1ccc(C)c(OCc2cc(C(=O)N3CCN(C(=O)c4ccco4)CC3)no2)c1
  A = 16.8 | B = -3.2 | C = -12.5 | D = 33.6 | E = 80.0* | F = 5.9

Cc1ccc(C)c(OCc2cc(C(=O)N3CC[C@@H]4CCCC[C@H]4C3)no2)c1
  A = 17.4 | B = -9.6 | C = -7.9 | D = 22.4 | E = 54.4* | F = 2.9

C[C@@H]1CCCCO[C@@H](CN(C)C(=O)CCC(F)(F)F)[C@@H](C)CN([C@H](C)CO)C(=O)c2cc(NS(C)(=O)=O)ccc2O1
  A = . | B = -5.2[16.7 µM] | C = 0.7 | D = . | E = -5.6 | F = -2.1

Nc1nn2cc(-c3ccc(Br)cc3)nc2c2ccccc12
  A = 44.1* | B = 4.9 | C = -0.3 | D = 54.8 | E = ? | F = -4.4

COCC(=O)Nc1ccc2c(c1)[C@H]1C[C@H](CC(=O)N3CCc4ccccc4C3)O[C@@H](CO)[C@H]1O2
  A = . | B = 2.3[16.7 µM] | C = -5.2 | D = . | E = 5.5 | F = 2.7

O=C(C[C@H]1CC[C@@H](NC(=O)CN2CCOCC2)[C@@H](CO)O1)NC1CCCCC1
  A = . | B = . | C = 1.7 | D = . | E = 0.4 | F = 1.4

CN1CCN(C(=O)C[C@H]2CC[C@@H]3[C@H](COC[C@@H](O)CN3C(=O)C3CC3)O2)CC1
  A = . | B = 2.3[16.7 µM] | C = . | D = . | E = -1.3 | F = 1.4

Cc1ccc(C)c(S(=O)(=O)NC(C)CCc2ccccc2)c1 (centres undefined)
  A = -2.5 | B = 192.7* | C = -14.7 | D = -5.5 | E = -6.8 | F = 9.8

Cc1ccc(S(=O)(=O)NC(C)CCc2ccccc2)cc1 (centres undefined)
  A = -1.3 | B = 10.3 | C = 8.5 | D = 13.5 | E = 5.5 | F = -2.4

C[C@@H]1CN([C@H](C)CO)C(=O)c2cc(C#CC3CCCC3)cnc2O[C@H]1CN(C)C(=O)C1CCCCC1
  A = . | B = -4.0[16.7 µM] | C = 10.4 | D = . | E = -0.8 | F = 1.1

O=C(N[C@H]1C=C[C@H](CC(=O)N2CCOCC2)O[C@@H]1CO)c1ccc2c(c1)OCO2
  A = . | B = . | C = -8.9 | D = . | E = 0.6 | F = -4.6

CCOC(=O)c1ccc(N/C=C/C(=O)c2ccc(OC)cc2)cc1
  A = . | B = -3.9 | C = -0.5 | D = 21.2 | E = ? | F = -7.4

Cc1ccc(O)c(N/C=C/C(=O)c2ccc(F)cc2)c1
  A = -1.9 | B = -1.4 | C = -12.7 | D = 69.3 | E = 63.3* | F = -7.2

No new results follow: an excerpt of the list.
Key to letters – A = Wnt bcat act; B = miR-122 sensor; C = UUG fidelity; D = MITF act; E = esBAF inh; F = PglD inh
CN1CCN(C(=O)C[C@H]2CC[C@@H]3[C@H](COC[C@@H](O)CN3C(=O)C3CC3)O2)CC1
  A = . | B = 2.3[16.7 µM] | C = . | D = . | E = -1.3 | F = 1.4

Cc1ccc(C)c(S(=O)(=O)NC(C)CCc2ccccc2)c1 (centres undefined)
  A = -2.5 | B = 192.7* | C = -14.7 | D = -5.5 | E = -6.8 | F = 9.8
